PMC5920688 (Journal of veterinary pharmacology and therapeutics, 2017)

How the values were obtained:
[1] = Synovial fluid t-TUCB concentrations after intravenous administration; format: in vivo; details: horses, i.v., 1 mg/kg; for at least 48 hours
[2] = Plasma pharmacokinetics of t-TUCB after intravenous administration; format: in vivo; details: horses, i.v., 1 mg/kg; for at least 48 hours

Compound: O=C(Nc1ccc(OC(F)(F)F)cc1)N[C@H]1CC[C@H](Oc2ccc(C(=O)O)cc2)CC1 [t-TUCB, trans-4-{4-[3-(4-Trifluoromethoxy-phenyl)-ureido]-cyclohexyloxy}-benzoic acid]
- Synovial fluid concentration relative to in vitro IC95 [1]: several fold higher
- Plasma concentration relative to in vitro IC95 [2]: several fold higher
